The list shows a part of the results.

By UniProt entry, the sequences of proteins in these tests, tags left out. Where a name states a change or a piece, a line headed by the entry shows the natural chain unless it says otherwise.
UniProt P08518, whole entry: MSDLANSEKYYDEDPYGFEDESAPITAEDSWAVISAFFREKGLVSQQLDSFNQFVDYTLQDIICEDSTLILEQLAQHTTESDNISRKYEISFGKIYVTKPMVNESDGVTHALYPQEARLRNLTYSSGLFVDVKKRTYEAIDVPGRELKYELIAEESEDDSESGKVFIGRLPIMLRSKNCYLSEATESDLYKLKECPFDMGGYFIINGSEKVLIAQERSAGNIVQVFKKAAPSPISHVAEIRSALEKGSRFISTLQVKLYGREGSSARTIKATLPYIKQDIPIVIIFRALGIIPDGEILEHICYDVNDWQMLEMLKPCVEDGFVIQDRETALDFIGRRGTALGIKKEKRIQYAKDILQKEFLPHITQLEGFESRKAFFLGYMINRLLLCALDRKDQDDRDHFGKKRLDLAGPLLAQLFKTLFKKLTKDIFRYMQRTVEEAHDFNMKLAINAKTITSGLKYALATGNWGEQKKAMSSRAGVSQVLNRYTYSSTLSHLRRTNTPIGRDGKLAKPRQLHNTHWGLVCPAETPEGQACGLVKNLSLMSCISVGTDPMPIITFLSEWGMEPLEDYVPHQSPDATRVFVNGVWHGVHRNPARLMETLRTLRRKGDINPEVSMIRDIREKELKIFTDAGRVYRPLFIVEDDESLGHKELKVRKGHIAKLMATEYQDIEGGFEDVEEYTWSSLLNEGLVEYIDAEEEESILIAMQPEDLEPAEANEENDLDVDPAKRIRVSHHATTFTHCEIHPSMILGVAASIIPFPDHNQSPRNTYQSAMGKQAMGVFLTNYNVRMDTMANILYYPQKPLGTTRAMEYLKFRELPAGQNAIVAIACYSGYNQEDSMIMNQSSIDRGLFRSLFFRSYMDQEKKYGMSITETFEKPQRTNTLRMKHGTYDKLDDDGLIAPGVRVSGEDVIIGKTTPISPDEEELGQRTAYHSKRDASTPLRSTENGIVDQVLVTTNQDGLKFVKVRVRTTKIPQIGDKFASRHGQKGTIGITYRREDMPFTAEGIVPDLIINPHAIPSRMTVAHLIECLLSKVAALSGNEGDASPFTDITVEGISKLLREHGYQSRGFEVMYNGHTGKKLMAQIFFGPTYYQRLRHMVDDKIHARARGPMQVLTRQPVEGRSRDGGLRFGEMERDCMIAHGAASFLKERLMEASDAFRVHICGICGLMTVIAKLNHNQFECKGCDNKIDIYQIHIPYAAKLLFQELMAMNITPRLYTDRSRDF
UniProt P53129: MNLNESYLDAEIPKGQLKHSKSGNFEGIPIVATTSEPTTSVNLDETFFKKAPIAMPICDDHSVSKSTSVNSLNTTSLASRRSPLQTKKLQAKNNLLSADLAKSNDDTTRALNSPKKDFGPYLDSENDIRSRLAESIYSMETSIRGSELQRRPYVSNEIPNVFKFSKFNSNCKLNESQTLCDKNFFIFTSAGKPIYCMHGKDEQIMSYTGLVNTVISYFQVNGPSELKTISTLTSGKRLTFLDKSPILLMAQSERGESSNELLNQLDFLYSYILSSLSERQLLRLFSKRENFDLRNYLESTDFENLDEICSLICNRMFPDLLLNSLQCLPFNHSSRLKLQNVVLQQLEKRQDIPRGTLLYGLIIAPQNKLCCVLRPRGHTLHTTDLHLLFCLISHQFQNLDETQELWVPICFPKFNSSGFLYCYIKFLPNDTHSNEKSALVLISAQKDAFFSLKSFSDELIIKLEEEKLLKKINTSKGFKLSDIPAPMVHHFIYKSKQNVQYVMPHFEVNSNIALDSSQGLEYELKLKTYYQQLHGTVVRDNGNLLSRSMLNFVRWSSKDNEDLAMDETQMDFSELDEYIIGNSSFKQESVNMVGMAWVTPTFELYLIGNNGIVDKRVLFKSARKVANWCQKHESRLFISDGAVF
UniProt Q03308: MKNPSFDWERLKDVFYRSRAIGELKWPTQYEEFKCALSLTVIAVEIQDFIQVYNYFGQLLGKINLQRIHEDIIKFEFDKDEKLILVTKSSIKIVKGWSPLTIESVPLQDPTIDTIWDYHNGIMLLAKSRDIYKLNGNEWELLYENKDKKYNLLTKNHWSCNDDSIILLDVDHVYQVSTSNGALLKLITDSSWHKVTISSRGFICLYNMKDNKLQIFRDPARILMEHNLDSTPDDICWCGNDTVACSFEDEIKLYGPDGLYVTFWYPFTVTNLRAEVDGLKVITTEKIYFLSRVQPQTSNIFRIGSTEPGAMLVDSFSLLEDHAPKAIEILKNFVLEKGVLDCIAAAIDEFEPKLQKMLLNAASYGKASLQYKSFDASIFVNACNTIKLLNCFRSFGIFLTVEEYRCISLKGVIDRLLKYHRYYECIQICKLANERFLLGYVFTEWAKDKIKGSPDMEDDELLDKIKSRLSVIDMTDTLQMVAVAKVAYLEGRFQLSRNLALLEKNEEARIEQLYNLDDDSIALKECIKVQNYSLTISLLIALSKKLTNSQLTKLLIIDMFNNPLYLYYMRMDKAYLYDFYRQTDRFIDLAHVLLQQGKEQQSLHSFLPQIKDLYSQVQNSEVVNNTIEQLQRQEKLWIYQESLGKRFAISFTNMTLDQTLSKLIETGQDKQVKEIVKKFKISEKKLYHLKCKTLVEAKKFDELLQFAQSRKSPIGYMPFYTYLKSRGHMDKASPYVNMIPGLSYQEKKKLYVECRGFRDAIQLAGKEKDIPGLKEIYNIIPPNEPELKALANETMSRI
UniProt P38959: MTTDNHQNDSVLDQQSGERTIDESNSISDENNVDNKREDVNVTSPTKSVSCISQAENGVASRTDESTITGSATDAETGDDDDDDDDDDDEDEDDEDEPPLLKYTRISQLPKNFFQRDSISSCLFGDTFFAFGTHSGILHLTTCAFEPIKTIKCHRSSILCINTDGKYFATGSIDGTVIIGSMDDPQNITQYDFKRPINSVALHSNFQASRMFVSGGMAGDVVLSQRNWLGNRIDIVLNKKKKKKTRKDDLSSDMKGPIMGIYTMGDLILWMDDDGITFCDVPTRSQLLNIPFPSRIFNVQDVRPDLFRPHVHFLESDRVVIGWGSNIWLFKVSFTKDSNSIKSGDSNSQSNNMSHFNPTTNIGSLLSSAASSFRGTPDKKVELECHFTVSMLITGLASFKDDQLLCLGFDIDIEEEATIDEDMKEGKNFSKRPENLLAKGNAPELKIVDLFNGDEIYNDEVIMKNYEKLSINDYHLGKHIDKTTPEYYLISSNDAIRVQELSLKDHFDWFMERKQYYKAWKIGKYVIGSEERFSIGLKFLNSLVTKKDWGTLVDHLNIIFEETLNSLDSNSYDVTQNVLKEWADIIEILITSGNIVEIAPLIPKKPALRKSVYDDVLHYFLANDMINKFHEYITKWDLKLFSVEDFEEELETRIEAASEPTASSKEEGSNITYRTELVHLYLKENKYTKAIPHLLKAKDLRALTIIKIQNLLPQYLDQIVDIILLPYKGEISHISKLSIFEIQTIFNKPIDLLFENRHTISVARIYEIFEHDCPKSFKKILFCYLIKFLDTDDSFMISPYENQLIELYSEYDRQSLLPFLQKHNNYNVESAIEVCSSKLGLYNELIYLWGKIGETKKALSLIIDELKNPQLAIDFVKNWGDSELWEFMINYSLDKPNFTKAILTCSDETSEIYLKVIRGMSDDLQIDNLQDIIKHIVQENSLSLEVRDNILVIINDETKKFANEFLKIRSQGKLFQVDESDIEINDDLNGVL

The values below come from publication PMC11066047.

Common to all, as to test: cross-link between two proteins; cross-linking mass spectrometry
Test [1] deals with DNA-directed RNA polymerase II subunit RPB2 (UniProt P08518).
For test [2], the target named is Vacuolar fusion protein MON1 (UniProt P53129).
Test [3] has as its target Vacuolar protein sorting-associated protein 16 (UniProt Q03308).
For test [4], the target named is Vacuolar protein sorting-associated protein 41 (UniProt P38959).

Take “DNA-directed RNA polymerase II subunit RPB1, P04050”: the “listed as a hit” value in test [1] is “yes”. Turning to Vacuolar fusion protein CCZ1, P38273, the “listed as a hit” value in test [2] is listed as “yes”. Turning to “Vacuolar protein sorting-associated protein 41, P38959”, the “listed as a hit” value in test [3] is “yes”.

Consider Vacuolar membrane protein PEP3, P27801, for which, in test [4], the “listed as a hit” value is given as “yes”.
